Molecular target: T1, plasma DP IV activity (Rattus norvegicus, UniProt P14740)
T1 construct: from tissue; host or cells: plasma of Wistar rats
Experiment: DP IV inhibiting activity after intravasal and oral administration to Wistar rats
Format: in vivo
Details: 100 mg/kg, oral

Protein sequences, listed by entry. Tags and fused reporters are not part of them. Residues count along the entry.
UniProt P14740, 37-767 limits assumed: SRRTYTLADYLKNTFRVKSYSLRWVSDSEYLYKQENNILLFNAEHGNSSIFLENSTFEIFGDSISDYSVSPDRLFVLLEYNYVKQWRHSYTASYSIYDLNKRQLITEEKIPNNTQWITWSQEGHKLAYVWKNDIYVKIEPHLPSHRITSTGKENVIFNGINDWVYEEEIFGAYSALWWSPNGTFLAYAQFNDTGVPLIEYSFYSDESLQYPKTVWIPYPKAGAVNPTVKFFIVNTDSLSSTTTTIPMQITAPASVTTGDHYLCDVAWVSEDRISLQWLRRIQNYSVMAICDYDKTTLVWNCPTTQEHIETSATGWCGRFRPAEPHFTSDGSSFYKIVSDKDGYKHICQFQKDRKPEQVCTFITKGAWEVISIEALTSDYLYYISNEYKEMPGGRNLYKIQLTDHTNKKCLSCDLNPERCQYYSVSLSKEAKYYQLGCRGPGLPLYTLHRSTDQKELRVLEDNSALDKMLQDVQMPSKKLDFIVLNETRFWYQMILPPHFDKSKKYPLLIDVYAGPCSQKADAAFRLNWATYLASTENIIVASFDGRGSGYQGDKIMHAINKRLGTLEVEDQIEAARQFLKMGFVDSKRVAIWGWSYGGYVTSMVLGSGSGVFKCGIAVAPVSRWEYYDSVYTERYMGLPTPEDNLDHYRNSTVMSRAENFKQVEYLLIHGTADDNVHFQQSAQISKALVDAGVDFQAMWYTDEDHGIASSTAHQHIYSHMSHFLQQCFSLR

| Compound | in vivo DP IV-inhibition at tmax, p.o. |
| --- | --- |
| CC[C@H](C)[C@H](N)C(=O)N1CCC[C@H]1C(=O)N[C@H](C(=O)O)[C@@H](C)CC [Diprotin A, Ile-Pro-Ile, reference compound] | no inhibition |
| CC(C)C[C@H](NC(=O)[C@@H]1CCCN1C(=O)[C@@H](N)C(C)C)C(=O)O [Diprotin B, Val-Pro-Leu, reference compound] | no inhibition |
